Assay results as given in patent US7070796B1 (Debiopharm S.A., priority 1999, dated 2006).

From the text: Some of these tests will appear in the examples as comparatives.

gentiobiose
effect of the substance, mixed with or solubilised in water, on oxaliplatinum solubility: allow to dissolve, at least a part of the oxaliplatinum
